Test results reported in article PMC7822063, “Analogues of 2′-hydroxychalcone with modified C4-substituents as the inhibitors against human acetylcholinesterase” (Journal of Enzyme Inhibition and Medicinal Chemistry, 2020).

By UniProt entry, the sequences of proteins in these tests, tags left out. Residues count along the entry.
UniProt P22303, 32-614: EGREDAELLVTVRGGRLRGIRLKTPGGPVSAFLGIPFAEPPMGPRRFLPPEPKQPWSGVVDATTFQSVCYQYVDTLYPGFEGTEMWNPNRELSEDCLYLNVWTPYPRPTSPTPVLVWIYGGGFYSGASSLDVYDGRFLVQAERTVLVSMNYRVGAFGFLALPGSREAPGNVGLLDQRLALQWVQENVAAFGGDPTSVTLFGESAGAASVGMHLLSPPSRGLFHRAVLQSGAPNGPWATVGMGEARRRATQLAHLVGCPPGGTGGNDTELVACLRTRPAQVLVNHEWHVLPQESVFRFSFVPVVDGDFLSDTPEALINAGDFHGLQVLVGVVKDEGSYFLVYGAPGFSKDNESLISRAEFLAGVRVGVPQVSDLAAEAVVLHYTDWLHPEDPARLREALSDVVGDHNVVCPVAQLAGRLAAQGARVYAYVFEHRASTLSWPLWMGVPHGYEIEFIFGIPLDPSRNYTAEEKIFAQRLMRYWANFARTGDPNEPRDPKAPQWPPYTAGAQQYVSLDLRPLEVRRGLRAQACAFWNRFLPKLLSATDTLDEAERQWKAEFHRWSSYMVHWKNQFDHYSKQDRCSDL

Molecular target: human recombinant AChE (Homo sapiens, UniProt P22303)
Assay: biochemical
Settings: read-out: Human AChE (% Inhibition at 10 μM)

In the case of CC[N+](C)(CC)CCC[n+]1c(-c2ccccc2)c2cc(N)ccc2c2ccc(N)cc21 [Propidium, propidium iodide, reference compound], the inhibition at 10 µM is reported as 52%.
